According to ChEMBL document CHEMBL2169839 (J Med Chem, 2012):

Biological target: T1, Aldo-keto reductase family 1 member C3 (Homo sapiens, UniProt P42330)
T1 sequence (P42330 whole entry): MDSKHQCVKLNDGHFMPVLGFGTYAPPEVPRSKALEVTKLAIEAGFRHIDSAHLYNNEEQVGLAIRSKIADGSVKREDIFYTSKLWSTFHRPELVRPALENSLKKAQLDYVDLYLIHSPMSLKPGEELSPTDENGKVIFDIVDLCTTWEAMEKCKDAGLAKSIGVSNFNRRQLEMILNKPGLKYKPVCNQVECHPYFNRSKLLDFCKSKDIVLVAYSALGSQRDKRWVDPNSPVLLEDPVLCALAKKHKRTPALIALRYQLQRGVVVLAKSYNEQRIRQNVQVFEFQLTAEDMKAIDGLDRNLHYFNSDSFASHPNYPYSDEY
Test: biochemical

IC50: 1100 nM
SMILES: COc1ccc2cc([C@H](C)C(=O)O)ccc2c1 [NAPROXEN]
